Assay results: publication PMC10079235 (PLOS Neglected Tropical Diseases, 2023)

System: HCT-8/NC(PTX) cells
Conditions: human, 41 h
Description: Host cell drug tolerance to specified inhibitors was evaluated by 3-(4,5-dimethylthiazol-2-yl)-5-(3-carboxymethoxyphenyl)-2-(4-sulfophenyl)-2H-tetrazolium (MTS) assay. WT and transgenic host cells were seeded in 96-well plates (10,000 cells/well) and cultured for 24 h, followed by the addition of specified compounds at serially diluted concentrations and continued culture for 41 h. After 3 washes with serum-free medium, MTS solution (Saint-Bio, Shanghai, China) was added into the plates (20 μL/well) and incubated at 37°C for 2 h. Optical density at 490 nm (OD490) was measured using a Synergy LX multi-mode reader (BioTek, Winooski, VT). Drug tolerance was indicated by half-maximal cytotoxic concentrations (TC50 values) calculated by nonlinear regression using 4PL model. Selectivity index (SI) for each compound was determined by the ratio between TC50 and EC50 values (SI = TC50/EC50).
Surviving cells were allowed to recover in drug-free medium for 3–5 d to near confluence (round 1). The selection/recovery cycle were repeated once (round 2). […] The resulting cell lines after PTX or NTZ selection were designated as WT(PTX), NC(PTX) and MDR1(PTX), or WT(NTZ), NC(NTZ) and MDR1(NTZ), respectively (Tables 1 and S2).

CC(=O)O[C@H]1C(=O)[C@@]2(C)[C@H]([C@H](OC(=O)c3ccccc3)[C@]3(O)C[C@H](OC(=O)[C@H](O)[C@@H](NC(=O)c4ccccc4)c4ccccc4)C(C)=C1C3(C)C)[C@]1(OC(C)=O)CO[C@@H]1C[C@@H]2O [Paclitaxel]
TC50: 15.20 µM
